# Reference: US10040791B2, “Isoxazole derivative as mutant isocitrate dehydrogenase 1 inhibitor” (Daiichi Sankyo Company, Limited, priority 2014, dated 2018)
# Protein sequences, listed by entry. Tags and fused reporters are not part of them.
# UniProt O75874, whole entry R132H: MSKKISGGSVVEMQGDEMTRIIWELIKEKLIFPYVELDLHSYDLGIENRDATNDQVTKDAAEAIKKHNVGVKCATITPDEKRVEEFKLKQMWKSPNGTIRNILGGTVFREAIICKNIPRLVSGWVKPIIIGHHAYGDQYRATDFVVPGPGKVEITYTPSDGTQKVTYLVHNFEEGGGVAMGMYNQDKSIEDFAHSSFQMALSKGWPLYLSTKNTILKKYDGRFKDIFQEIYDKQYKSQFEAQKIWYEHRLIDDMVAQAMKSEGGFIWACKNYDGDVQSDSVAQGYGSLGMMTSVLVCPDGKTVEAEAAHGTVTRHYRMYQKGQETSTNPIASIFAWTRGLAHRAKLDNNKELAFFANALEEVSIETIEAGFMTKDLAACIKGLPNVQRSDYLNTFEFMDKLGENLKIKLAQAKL
# Target: IDH1R132H (Homo sapiens (Human), UniProt O75874, R132H)
# Assay: Inhibitory activity against IDH1R132H enzyme (NADPH detection, WST-8)
# Format: biochemical
# Settings: 12 nM, residual NADPH detected with WST-8, read-out: Test Example 1 IDH1 R132H IC50
row,IC50 [nM],SMILES
1,25,C=CS(=O)(=O)N1CCC(c2onc(-c3c(Cl)cc(Cl)cc3Cl)c2C(=O)n2ccc3c(/C=C/C(=O)O)cccc32)CC1 [Example 103]
2,7,"COC(C)(C)c1onc(-c2c(Cl)cc(Cl)cc2Cl)c1C(=O)n1ccc2c(/C=C/C(=O)O)cccc21 [Example 31, (2E)-3-(1-{[5-(2-Methoxypropan-2-yl)-3-(2,4,6-trichlorophenyl)-1,2-oxazol-4-yl]carbonyl}-1H-indol-4-yl)prop-2-enoic acid]"
3,15,"Cc1cc(Cl)c(-c2noc(C(C)(C)F)c2C(=O)n2cc(C)c3c(/C=C/C(=O)O)cccc32)c(Cl)c1 [Example 56, (2E)-3-(1-{[3-(2,6-Dichloro-4-methylphenyl)-5-(2-fluoropropan-2-yl)-1,2-oxazol-4-yl]carbonyl}-3-methyl-1H-indol-4-yl)prop-2-enoic acid]"
4,14,"Cc1cn(C(=O)c2c(-c3c(Cl)cc(Cl)cc3Cl)noc2C(C)C)c2cccc(/C=C/C(=O)O)c12 [Example 29, (2E)-3-(1-{[5-(Propan-2-yl)-3-(2,4,6-trichlorophenyl)-1,2-oxazol-4-yl]carbonyl}-3-methyl-1H-indol-4-yl)prop-2-enoic acid]"
5,28,"CC1(c2onc(-c3c(Cl)cc(Cl)cc3Cl)c2C(=O)n2ccc3c(/C=C/C(=O)O)ccnc32)COC1 [Example 9, (2E)-3-(1-{[5-(3-Methyloxetan-3-yl)-3-(2,4,6-trichlorophenyl)-1,2-oxazol-4-yl]carbonyl}-1H-pyrrolo[2,3-b]pyridin-4-yl]prop-2-enoic acid]"
6,27,"O=C(O)/C=C/c1cccc2c1ccn2C(=O)c1c(-c2c(Cl)cccc2Cl)noc1N1CCOCC1 [Example 136, (2E)-3-(1-{[3-(2,6-Dichlorophenyl)-5-(morpholin-4-yl)-1,2-oxazol-4-yl]carbonyl}-1H-indol-4-yl)prop-2-enoic acid]"
7,11,"CC(C)(O)c1onc(-c2c(Cl)cccc2Cl)c1C(=O)n1ccc2c(/C=C/C(=O)O)cccc21 [Example 7, (2E)-3-(1-{[3-(2,6-Dichlorophenyl)-5-(2-hydroxypropan-2-yl)-1,2-oxazol-4-yl]carbonyl}-1H-indol-4-yl)prop-2-enoic acid]"
8,31,"CCN(CC)c1onc(-c2c(Cl)cccc2Cl)c1C(=O)n1ccc2c(/C=C/C(=O)O)cccc21 [Example 134, (2E)-3-(1-{[3-(2,6-Dichlorophenyl)-5-(diethylamino)-1,2-oxazol-4-yl]carbonyl}-1H-indol-4-yl)prop-2-enoic acid]"
9,19,C=CC(=O)N1CC(C)(c2onc(-c3c(Cl)cc(Cl)cc3Cl)c2C(=O)n2ccc3c(/C=C/C(=O)O)cccc32)C1 [Example 98]
10,24,Cc1cn(C(=O)c2c(-c3ccc(Cl)c(F)c3Cl)noc2C(C)(C)F)c2cccc(/C=C/C(=O)O)c12 [Example 17]
11,509,C=CC(=O)N1CCC(c2onc(-c3c(Cl)cc(Cl)cc3Cl)c2C(=O)n2ncc3c(/C=C/C(=O)O)cccc32)CC1 [Example 118]
12,158,C=CC(=O)N1CCC(c2onc(-c3c(C)cc(Cl)cc3C)c2C(=O)n2ccc3c(/C=C/C(=O)O)cccc32)CC1 [Example 110]
13,6,C=CC(=O)N1CC(c2onc(-c3c(Cl)cc(Cl)cc3Cl)c2C(=O)n2ccc3c(/C=C/C(=O)O)cccc32)C1 [Example 95]
14,20,"COC1(c2onc(-c3c(Cl)cc(Cl)cc3Cl)c2C(=O)n2ccc3c(/C=C/C(=O)O)cccc32)CCC1 [Example 74, (2E)-3-(1-{[5-(1-Methoxycyclobutyl)-3-(2,4,6-trichlorophenyl)-1,2-oxazol-4-yl]carbonyl}-1H-indol-4-yl)prop-2-enoic acid]"
15,27,"CC(C)(F)c1onc(-c2ccc(Cl)c(F)c2Cl)c1C(=O)n1cc2c3c(cccc31)/C(=C/C(=O)O)CC2 [Example 20, (2E)-[1-{[3-(2,4-Dichloro-3-fluorophenyl)-5-(2-fluoropropan-2-yl)-1,2-oxazol-4-yl]carbonyl}-3,4-dihydrobenzo[cd]indol-5(1H)-ylidene]ethanoic acid]"
16,38,"CC(C)c1onc(-c2c(Cl)cc(Cl)cc2Cl)c1C(=O)n1ccc2c(/C=C/C(=O)O)cccc21 [Example 26, (2E)-3-(1-{[5-(Propan-2-yl)-3-(2,4,6-Trichlorophenyl)-1,2-oxazol-4-yl]carbonyl}-1H-indol-4-yl)prop-2-enoic acid]"
17,31,"CC(C)(C)c1onc(-c2c(F)cc(Cl)cc2Cl)c1C(=O)n1ccc2c(/C=C/C(=O)O)cccc21 [Example 35, (2E)-3-(1-{[5-(tert-Butyl)-3-(2,4-dichloro-6-fluorophenyl)-1,2-oxazol-4-yl]carbonyl}-1H-indol-4-yl)prop-2-enoic acid]"
18,13,"Cc1cn(C(=O)c2c(-c3c(Cl)cc(Cl)cc3Cl)noc2C2(N(C)C)CC2)c2cccc(/C=C/C(=O)O)c12 [Example 82, (2E)-3-(1-{[5-[1-(Dimethylamino)cyclopropyl]-3-(2,4,6-trichlorophenyl)-1,2-oxazol-4-yl]carbonyl}-3-methyl-1H-indol-4-yl)prop-2-enoic acid]"
19,440,C=CC(=O)N1CCC(c2onc(-c3c(Cl)cc(Cl)cc3Cl)c2C(=O)n2ccc3c(/C=C(\C)C(=O)O)cccc32)CC1 [Example 116]
20,17,"O=C(O)/C=C/c1cccc2c1ccn2C(=O)c1c(-c2c(Cl)cc(Cl)cc2Cl)noc1C1(F)COC1 [Example 6, (2E)-3-(1-{[5-(3-Fluorooxetan-3-yl)-3-(2,4,6-trichlorophenyl)-1,2-oxazol-4-yl]carbonyl}-1H-indol-4-yl)prop-2-enoic acid]"
21,14,"CNC(C)(C)c1onc(-c2c(Cl)cc(Cl)cc2Cl)c1C(=O)n1cc2c3c(cccc31)/C(=C/C(=O)O)CC2 [Example 85, (2E)-[1-({5-[2-(Methylamino)propan-2-yl]-3-(2,4,6-trichlorophenyl)-1,2-oxazol-4-yl}carbonyl)-3,4-dihydrobenzo[cd]indol-5(1H)-ylidene]ethanoic acid]"
22,14,"O=C(O)/C=C/c1cccc2c1ccn2C(=O)c1c(-c2c(Cl)cccc2Cl)noc1N1CCCC1 [Example 135, (2E)-3-(1-{[3-(2,6-Dichlorophenyl)-5-(pyrrolidin-1-yl)-1,2-oxazol-4-yl]carbonyl}-1H-indol-4-yl)prop-2-enoic acid]"
23,147,C=CC(=O)N1CCC(c2onc(-c3c(Cl)cc(Cl)cc3Cl)c2C(=O)n2cc(C)c3c(CCC(=O)O)cccc32)CC1 [Example 115]
24,80,"C=CC(=O)N1CCN(c2onc(-c3c(Cl)cccc3Cl)c2C(=O)n2ccc3c(/C=C/C(=O)O)cccc32)[C@@H](C)C1 [Example 145, (2E)-3-[1-({5-[(2S)-4-Acryloyl-2-methylpiperazin-1-yl]-3-(2,6-dichlorophenyl)-1,2-oxazol-4-yl}carbonyl)-1H-indol-4-yl]prop-2-enoic acid]"
25,8,"CC1(c2onc(-c3c(Cl)cccc3Cl)c2C(=O)n2ccc3c(/C=C/C(=O)O)cccc32)CCO1 (centres unmarked) [Example 77, (2E)-3-(1-{[3-(2,6-Dichlorophenyl)-5-(2-methyloxetan-2-yl)-1,2-oxazol-4-yl]carbonyl}-1H-indol-4-yl)prop-2-enoic acid]"

row,SMILES,IC50 [nM]
1,"Cc1cn(C(=O)c2c(-c3c(Cl)cc(Br)cc3Cl)noc2C(C)(C)F)c2cccc(/C=C/C(=O)O)c12 [Example 68, (2E)-3-(1-{[3-(4-Bromo-2,6-dichlorophenyl)-5-(2-fluoropropan-2-yl)-1,2-oxazol-4-yl]carbonyl}-3-methyl-1H-indol-4-yl)prop-2-enoic acid]",15
2,"Cc1cn(C(=O)c2c(-c3c(Cl)cc(Cl)cc3Cl)noc2C(C)(C)C)c2cccc(/C=C/C(=O)O)c12 [Example 33, (2E)-3-(1-{[5-(tert-Butyl)-3-(2,4,6-trichlorophenyl)-1,2-oxazol-4-yl]carbonyl}-3-methyl-1H-indol-4-yl)prop-2-enoic acid]",20
3,"C=CC(=O)N1C[C@@H](C)N(c2onc(-c3c(Cl)cccc3Cl)c2C(=O)n2ccc3c(/C=C/C(=O)O)cccc32)C2(CC2)C1 [Example 159, (2E)-3-[1-({5-[(5R)7-Acryloyl-5-methyl-4,7-diazaspiro[2.5]oct-4-yl]-3-(2,6-dichlorophenyl)-1,2-oxazol-4-yl}carbonyl)-1H-indol-4-yl]prop-2-enoic acid]",11
4,C=CC(=O)N1CCC(c2onc(-c3ccc(Cl)c(F)c3Cl)c2C(=O)n2cc(C)c3c(/C=C/C(=O)O)cccc32)CC1 [Example 129],85
5,"Cc1cc(C)c(-c2noc(C(C)(C)F)c2C(=O)n2cc(C)c3c(/C=C/C(=O)O)cccc32)c(C)c1 [Example 60, (2E)-3-(1-{[5-(2-Fluoropropan-2-yl)-3-(2,4,6-trimethylphenyl)-1,2-oxazol-4-yl]carbonyl}-3-methyl-1H-indol-4-yl)prop-2-enoic acid]",18
6,"Cc1cn(C(=O)c2c(-c3c(F)cc(Cl)cc3F)noc2C(C)(C)F)c2cccc(/C=C/C(=O)O)c12 [Example 54, (2E)-3-(1-{[3-(4-Chloro-2,6-difluorophenyl)-5-(2-fluoropropan-2-yl)-1,2-oxazol-4-yl]carbonyl}-3-methyl-1H-indol-4-yl)prop-2-enoic acid]",17
7,"Cc1cn(C(=O)c2c(-c3c(Cl)cc(Cl)cc3Cl)noc2C2(C)COC2)c2cccc(/C=C/C(=O)O)c12 [Example 2, (2E)-3-(3-Methyl-1-{[5-(3-methyloxetan-3-yl)-3-(2,4,6-trichlorophenyl)-1,2-oxazol-4-yl]carbonyl}-1H-indol-4-yl)prop-2-enoic acid]",7
8,C=CC(=O)N1CCC(OC)(c2onc(-c3c(Cl)cc(Cl)cc3Cl)c2C(=O)n2cc(C)c3c(/C=C/C(=O)O)cccc32)CC1 [Example 117],23
9,"C=CC(=O)N1CCC(c2onc(-c3ccc(Cl)cc3Cl)c2C(=O)n2cc3c4c(cccc42)/C(=C/C(=O)O)CC3)CC1 [Example 131, (2E)-[1-{[5-(1-Acryloylpiperidin-4-yl)-3-(2,4-dichlorophenyl)-1,2-oxazol-4-yl]carbonyl}-3,4-dihydrobenzo[cd]indol-5(1H)-ylidene]ethanoic acid]",62
10,"COC1(c2onc(-c3c(Cl)cc(Cl)cc3Cl)c2C(=O)n2cc3c4c(cccc42)/C(=C/C(=O)O)CC3)CCC1 [Example 12, (2E)-[1-{[5-(1-Methoxycyclobutyl)-3-(2,4,6-trichlorophenyl)-1,2-oxazol-4-yl]carbonyl}-3,4-dihydrobenzo[cd]indol-5(1H)-ylidene]ethanoic acid]",16
